Experimental data reported in patent publication US6307090A.

By UniProt entry, the sequences of proteins in these tests, tags left out. Residues count along the entry.
UniProt P62993, whole entry: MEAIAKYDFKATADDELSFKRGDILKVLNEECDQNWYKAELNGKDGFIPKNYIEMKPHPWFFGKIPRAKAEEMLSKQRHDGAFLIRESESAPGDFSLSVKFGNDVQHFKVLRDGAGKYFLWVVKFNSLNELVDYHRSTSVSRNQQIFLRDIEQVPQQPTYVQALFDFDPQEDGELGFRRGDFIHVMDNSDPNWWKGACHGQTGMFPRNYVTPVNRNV
UniProt P62993, 60-152 limits assumed: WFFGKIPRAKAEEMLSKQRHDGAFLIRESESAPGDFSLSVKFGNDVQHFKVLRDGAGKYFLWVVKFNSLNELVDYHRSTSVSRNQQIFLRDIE

Assays:
[1] = molecular target: Grb2 SH2 domain (Homo sapiens, UniProt P62993); assay: Grb2 SH2 domain binding by surface plasmon resonance (solution IC50, competition with immobilized SHC phosphopeptide); conditions: for Grb2 SH2 domain binding affinity (in words): surface plasmon resonance, FIGS. 1 and 2
Protocol: In order to examine pTyr mimetics in the context of Grb2 SH2 inhibitors, the recently disclosed high affinity pTyr-containing tripeptide 18b^53 was chosen as a model platform on which to append phosphotyrosyl-mimeticking analogues. A series of new inhibitors 18c-f and 20d and 20f incorporating pTyr mimetics 15c-f was prepared and Grb2 SH2 domain binding affinities were determined by surface plasmon reasonance (FIGS. 1 and 2).^72,73 The linear Shc(Y317) peptide D-D-P-S-pY-V-N-V-Q(24) was employed as a reference, and gave an IC50 of 1.3 μM in this system. […] The importance of the "phosphate pharmacophore" to the overall binding of 18b was confirmed by the loss of all measureable binding affinity upon removal of the phosphate group (compound 18a).
SH2 domain using Surface Plasmon Resonance (SPR). The methods used were designed to measure a solution IC50 for peptide inhibition of the Grb2 SH2 domain. The approach minimizes the "left shift" encountered in SPR experiments that is observed when binding equilibrium constants are determined from association and dissociation rates at the SPR surface. In this study the SPR serves simply as a detector of free Grb2 in solution. The IC50 values are determined by mixing peptide with recombinant Grb2 or Grb2 SH2 domains and then measuring the amount of binding at equilibrium to the immobilized SHC phosphopeptide. The methods were essentially as previously described for the quantitative comparison of binding constants for the binding of other SH2 domains with phosphopeptides in solution.^72 In our experiments the immobilized phase was generated using SHC phosphopeptide, biotin-DDPSpYVNVQ (Quality Controlled Biochemicals, QCB), >90% purity by C18 HPLC and of the appropriate molecular weight (1453) by mass spectrometry. This peptide was attached to SA5 chips at 2 nM. […]

[2] = molecular target: interaction of native Grb2 with p185^erbB-2 in MDA-MB-453 cell lysates (Homo sapiens, UniProt P62993); assay: Inhibition of Grb2 SH2 domain binding in cell extracts (Grb2 immunoprecipitation, anti-phosphotyrosine western blot); conditions: 30 minutes incubation, FIG. 4
Text: (§1) Data in FIGS. 1 and 2 reflect inhibition measured in isolater] Grb2 SH2 domain protein relative to a reference phopsho-Shc(Y317) peptide. In physiological contexts however, Grb2 SH2 domains exist as part of larger Grb2 proteins which bind to pTyr-containing ligands are themselves protein in nature. In order to examine the ability of synthetic analogues to inhibit the interaction of native Grb2 with p185^erbB-2 two assays were used, one in which they were introduced directly into cell lysates and one of which required the compounds to cross membranes of intact cells. In both cases, MDA-MB-453 cells were utilized. These cells are derived from a human breast cancer where there is amplification of erbB-2 gene and resultant overexpression of mRNA and protein. […] Consistent with plasmon reasonace binding data (FIGS. 1 and 2) the level of inhibition is somewhat higher for 18c as compared to 20f.
Inhibition of Grb2 SH2 domain binding in cell extracts. […] Grb2 and associated Grb2-binding proteins were immunoprecipitated from each lysate (5 mg) with anti-Grb2 antibodies and collected using protein A sepharose using methods previously described.^67 Immunoprecipitated proteins were separated by SDS PAGE on 8-16% gradient gels (Novagen). pTyr containing proteins were detected by Western blotting using anti-phosphotyrosine antibodies (Upstate Biochemicals Inc.). […]

[3] = molecular target: intracellular Grb2 interaction with p185^erbB-2 in MDA-MB-453 cells (Homo sapiens, UniProt P62993); assay: Inhibition of Grb2 SH2 domain binding in whole cells (MDA-MB-453); conditions: intact MDA-MB-453 cells, 3 hours in serum free media, up to 50 μM, FIG. 5
Text: as §1
Compounds were also examined in a whole cell assay in which inhibition of intracellular Grb2 binding was measured following application of compounds to the media of MDA-MB-453 cells. […]
Inhibition of Grb2 SH2 domain binding in whole cells. […] To determine the amount of phosphotyrosine bound p185^erbB-2cells were then treated as described described above; cells were lysed Grb2 was immunoprecipitated and phosphotyrosine containing proteins were detected using immunoblotting and anti-phosphotyrosine antibody.

Structure (SMILES)	Grb2 SH2 domain binding affinity (in words) [1]	reduction of p185^erbB-2 bound to Grb2 in cell lysates [2]	enhancement in binding affinity by Nα-oxalyl group (20f relative to 18f) ([1]; surface plasmon resonance IC50 ratio)	inhibition of intracellular Grb2 interaction with p185^erbB-2 [3]
CC(=O)N[C@@H](Cc1ccc(OCC(=O)O)c(C(=O)O)c1)C(=O)NC1(C(=O)N[C@@H](CC(N)=O)C(=O)NCCCc2cccc3ccccc23)CCCCC1	low micromolar affinity	measurable loss of potency		
NC(=O)C[C@H](NC(=O)C1(NC(=O)[C@H](Cc2ccc(OCC(=O)O)c(C(=O)O)c2)NC(=O)C(=O)O)CCCCC1)C(=O)NCCCc1cccc2ccccc12	low micromolar affinity	clear dose-dependent reduction	five-fold enhancement in affinity	able to inhibit Grb2 interaction with p185^erbB-2
